{"sequences": {"note": "The chains behind the UniProt entries cited, without tags or fusion partners.", "UniProt Q9H3N8, whole entry": "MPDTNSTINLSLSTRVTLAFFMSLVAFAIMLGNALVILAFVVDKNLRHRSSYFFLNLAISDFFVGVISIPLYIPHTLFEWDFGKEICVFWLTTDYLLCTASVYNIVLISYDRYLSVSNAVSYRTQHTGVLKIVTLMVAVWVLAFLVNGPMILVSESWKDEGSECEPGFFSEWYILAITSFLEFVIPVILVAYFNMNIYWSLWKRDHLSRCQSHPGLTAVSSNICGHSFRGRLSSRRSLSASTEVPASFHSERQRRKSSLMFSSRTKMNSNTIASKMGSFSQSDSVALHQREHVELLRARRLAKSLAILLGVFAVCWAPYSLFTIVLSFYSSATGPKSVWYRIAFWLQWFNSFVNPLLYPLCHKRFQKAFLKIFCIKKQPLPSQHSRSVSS"}, "source": "patent US20040127395A1", "about": "(priority 2002, published 2004)", "key": {"[1]": {"tested_on": "mouse bone marrow-derived mast cells", "assay": "Histamine-induced mast cell chemotaxis in vitro (transwell)", "type": "cell-based", "conditions": "inhibition of mast cell chemotaxis"}, "[2]": {"target": "human histamine H4 receptor (Homo sapiens, UniProt Q9H3N8)", "assay": "Competition binding assay (3H-histamine) on recombinant human histamine H4 receptor", "conditions": "Table 4"}}}
{"smiles": "c1ccc2[nH]ccc2c1", "values": [{"measurement": "% Inh 1 μM", "setting": "[1]; compound 1 μM", "value": 0, "unit": "%"}, {"measurement": "% Inh 10 μM", "setting": "[1]; compound 10 μM", "value": 0, "unit": "%"}, {"measurement": "Ki", "setting": "[2]", "value": "> 10", "unit": "µM"}]}
